{"sequences": {"note": "The chains behind the UniProt entries cited, without tags or fusion partners.", "UniProt P20272, whole entry": "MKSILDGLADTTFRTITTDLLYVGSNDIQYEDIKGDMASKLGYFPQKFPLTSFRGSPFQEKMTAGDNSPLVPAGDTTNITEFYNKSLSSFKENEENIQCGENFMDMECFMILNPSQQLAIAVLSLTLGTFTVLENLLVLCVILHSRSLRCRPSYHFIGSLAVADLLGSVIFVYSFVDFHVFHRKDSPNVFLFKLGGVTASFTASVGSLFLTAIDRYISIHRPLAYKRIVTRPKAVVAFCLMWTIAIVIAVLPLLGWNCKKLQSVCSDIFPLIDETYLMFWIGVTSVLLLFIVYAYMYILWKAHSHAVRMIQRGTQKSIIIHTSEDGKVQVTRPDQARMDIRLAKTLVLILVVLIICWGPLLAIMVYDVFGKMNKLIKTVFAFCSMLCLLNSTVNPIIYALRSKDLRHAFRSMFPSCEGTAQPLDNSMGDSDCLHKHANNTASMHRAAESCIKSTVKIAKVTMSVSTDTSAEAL"}, "source": "patent US5624941A", "about": "“Pyrazole derivatives, method of preparing them and pharmaceutical compositions in which they are present” (Sanofi, priority 1992, dated 1997)", "target": "central cannabinoid receptors (Rattus norvegicus, UniProt P20272)", "data": [{"molecule": "Cc1c(C(=O)NN2CCCCC2)nn(-c2ccc(Cl)cc2Cl)c1-c1ccc(Cl)cc1", "note": "[N-piperidino-5-(4-chlorophenyl)-1-(2,4-dichlorophenyl)-4-methyl-pyrazole-3-carboxamide]", "values": [{"measurement": "antagonism of the central cannabinoid receptors", "value": "potent and selective antagonist"}]}]}
